## Properties, as collected for the OPERA models

Values as listed in the OPERA 2.9 repository of K. Mansouri.

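The OPERA project collected these measurements from public sources as training and test data for property models. A listed value is a point estimate from one report or more. Conditions of the individual experiments are not part of the data. The measured form (salt, isomer or mixture) is not always the one drawn. Some upstream entries may be estimates or bounds without being marked so.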

Melting points are in °C.
Boiling points are in °C, nominally at 760 mmHg.
The octanol-water partition coefficient is given as log10; larger values mean a more lipophilic compound.
Solubility in water is on a log10 molar scale (set defined at 25 °C).
Vapor pressure is log10 of mmHg; the set covers 15 to 30 °C, mostly 20 to 25 °C.
The Henry's law constant is on a log10 scale in atm·m3/mol (set defined at 25 °C); higher favours air over water.
The unbound fraction in human plasma runs from 0 (all bound) to 1 (all free).
Clint is human hepatic intrinsic clearance in µL/min per million cells; 0 means that no clearance was seen.
"–" marks a cell with nothing listed here.

| structure (SMILES) | name | MP (°C) | bp (°C) | logP (octanol/water) | water solubility (log10 mol/L) | log vapor pressure (log10 mmHg) | Henry's law constant (log10 atm·m3/mol) | fraction unbound | hepatic Clint (µL/min/10^6 cells) |
|---|---|---|---|---|---|---|---|---|---|
| COC(=O)c1c(Cl)c(Cl)c(C(=O)OC)c(Cl)c1Cl | Chlorthal-dimethyl | – | – | – | – | – | – | 0.01666 | 38.62 |
| CC1(C)[C@@H]2CC[C@@]1(C)CC2=O | (1S,4S)-4,7,7-Trimethylbicyclo[2.2.1]heptan-2-one | 186 | 213 | – | – | – | – | – | – |
| Nc1nc(C2CC2)nc(C(=O)O)c1Cl | – | – | – | – | -1.881 | -7.432 | – | – | – |
| CCCc1ccc(OC)cc1 | 4-Propylanisole | -15 | – | – | – | 0.875 | – | – | – |
| Cc1ccc(S(=O)(=O)NC(=O)Nc2cccc(OS(=O)(=O)c3ccc(C)cc3)c2)cc1 | Pergafast 201 | 157.7 | – | 2.6 | -4.123 | – | – | – | – |
| O=C(CS)OCC(COC(=O)CS)(COC(=O)CS)COC(=O)CS | – | 48.12 | – | 1.92 | -2.795 | -5.132 | – | – | – |
| N#CCCOc1ccccc1 | 3-Phenoxypropiononitrile | – | 266 | – | -1.915 | -2.031 | – | – | – |
| C=CCOC(=O)C(=C)C | Allyl methacrylate | – | – | 2.15 | -1.767 | – | – | – | – |
| CC(C)CNC[C@@H](O)[C@H](Cc1ccccc1)NC(=O)OC(C)(C)C | – | 110.1 | – | 3.9 | -3.466 | -7.02 | – | – | – |
| CCCCC(CC)COC(=O)CS (stereo not given) | 2-Ethylhexyl thioglycolate | – | – | 4.7 | -4.635 | -1.657 | – | – | – |
| FC(F)(F)C(F)(F)C(F)(F)C(F)(F)C(F)(F)C(F)(F)CCSCCCCS | – | -17 | – | 5.5 | – | -2.591 | – | – | – |
| NCCCOCCOCCOCCCN | 3,3'-[Oxybis(ethane-2,1-diyloxy)]dipropan-1-amine | – | – | – | – | -4.284 | -10.68 | – | – |
| CC(C)c1ccc(C=O)cc1 | 4-Isopropylbenzaldehyde | -50.25 | – | – | -2.478 | -1.581 | – | – | – |
| CC/C=C\CCOC(=O)c1ccccc1O | (3Z)-Hex-3-en-1-yl salicylate | – | – | 4.8 | -4.644 | -2.949 | – | – | – |
| COC(=O)CCS | Methyl 3-mercaptopropionate | – | – | 0.9 | – | 0.331 | – | – | – |
| CCc1occc(=O)c1O | 2-Ethyl-3-hydroxy-4-pyrone | 88.45 | – | – | – | -2.824 | – | – | – |
| CCCCCC/C=C/CCCCCCCCCC(=O)O | Vaccenic acid | 44 | – | 7.64 | – | – | – | – | – |
| O=C1C=CC(=O)O1 | 2,5-Furandione | – | – | -2.645 | -1.3 | – | – | – | – |
| CC(C)C(=O)C(C(O)=Nc1ccccc1)C(C(=O)c1ccc(F)cc1)c1ccccc1 (stereo not given) | – | – | – | 4.656 | -6.381 | – | – | – | – |
| CCCC1CC=C(C)C(=O)C1 (stereo not given) | 2-Methyl-5-propylcyclohex-2-en-1-one | -45.4 | 231.9 | 3.2 | -2.353 | -0.202 | – | – | – |
| COc1cc2[nH]c(=O)c(=O)[nH]c2cc1N | 6-Amino-1,4-dihydro-7-methoxy-2,3-quinoxalinedione | – | – | -0.31 | -3.029 | – | – | – | – |
| C=CCCCCCCCCO | 9-Decen-1-ol | – | – | – | -3.048 | -1.426 | – | – | – |
| CC(C)CCCCCCCCCCOC(=O)c1ccc(C(=O)OCCCCCCCCCCC(C)C)c(C(=O)OCCCCCCCCCCC(C)C)c1 | 1,2,4-Benzenetricarboxylic acid, triisotridecyl ester | -24.5 | – | – | -7.18 | – | – | – | – |
| CC(C)(O)Cc1ccccc1 | 1,1-Dimethylphenylethanol | – | – | 1.87 | – | -0.202 | – | – | – |
| CC(CO)(CO)CO | 2-(Hydroxymethyl)-2-methyl-1,3-propanediol | – | – | -1.105 | – | -4.62 | – | – | – |
| C=CC(=O)OCCC(C)CCOC(=O)C=C | 3-Methyl-1,5-pentanediyl diacrylate | -17.4 | – | – | -2.621 | -2.969 | – | – | – |
| CO[Si](OC)(C1CCCC1)C1CCCC1 | Cyclopentane, 1,1'-(dimethoxysilylene)bis- | – | – | – | -4.472 | -1.523 | – | – | – |
| COC(=O)[C@H]1[C@H]2C[C@@H]3c4[nH]c5cc(OC)ccc5c4CCN3C[C@H]2C[C@@H](OC(=O)/C=C/c2cc(OC)c(OC)c(OC)c2)[C@@H]1OC | Rescinnamine | – | – | 3.5 | -5.26 | – | – | – | – |
| CN1CCN2c3ccccc3Cc3ccccc3C2C1 (stereo not given) | Mianserin | – | – | – | – | – | – | 0.105 | 5.841 |

4 of these entries, quoted again:

| structure (SMILES) | name | MP (°C) | bp (°C) | logP (octanol/water) | water solubility (log10 mol/L) | log vapor pressure (log10 mmHg) | Henry's law constant (log10 atm·m3/mol) | fraction unbound | hepatic Clint (µL/min/10^6 cells) |
|---|---|---|---|---|---|---|---|---|---|
| O=C(CS)OCC(COC(=O)CS)(COC(=O)CS)COC(=O)CS | – | 48.12 | – | 1.92 | -2.795 | -5.132 | – | – | – |
| CC(C)CNC[C@@H](O)[C@H](Cc1ccccc1)NC(=O)OC(C)(C)C | – | 110.1 | – | 3.9 | -3.466 | -7.02 | – | – | – |
| O=C1C=CC(=O)O1 | 2,5-Furandione | – | – | -2.645 | -1.3 | – | – | – | – |
| CC(C)(O)Cc1ccccc1 | 1,1-Dimethylphenylethanol | – | – | 1.87 | – | -0.202 | – | – | – |